A short description of the data set: plasma protein binding using equilibrium dialysis. The data set is classed as in vitro ADME. The settings on record: read-out: % Bound (plasma protein binding rate) (converted). The source says:
Targeting GRP75 with a Chlorpromazine Derivative Inhibits Endometrial Cancer Progression through GRP75–IP3R-Ca2+-AMPK axis
Qi Wang, Lijuan Li, Xiaoyan Gao, Chunxue Zhang, Chen Xu, Lingyi Song, Jian Li, Xiao Sun *, Fei Mao *, Yudong Wang *
Supplementary Experimental Methods
Plasma protein binding using equilibrium dialysis: A 96-well equilibrium dialysis device and HTD 96 a/b regenerated cellulose membrane strips with a molecular mass cutoff of 12–14 kDa were obtained from HTDialysis LLC (Gales Ferry, CT). The dialysis device was assembled following the manufacturer's instructions.
Bioinformatics Analysis: The Kaplan–Meier Plotter (https://kmplot.com), GEPIA (http://gepia.cancer-pku.cn/), and Human Protein Atlas (http://www.proteinatlas.org/) were all utilized to analyze GRP75 expression in the EC microarray tissues and to assess overall survival and the relationship of GRP75 expression with prognosis. […]
activity of the caspase 3/7 was then determined according to the manufacturer's […]
RNA sequencing (RNA-seq) and enrichment analysis: Ishikawa cells were each divided into two subgroups, shNC and shHSPA9, with three replicate dishes for each cell type in each subgroup. […] Gene expression levels were then calculated using RSEM (v1.3.1), and differential expression analysis was conducted using DESeq2 (v1.4.5) with a Q value ≤ 0.05. […]

The text below walks through data of paper PMC11022737, “Targeting GRP75 with a Chlorpromazine Derivative Inhibits Endometrial Cancer Progression Through GRP75–IP3R‐Ca^2+‐AMPK Axis” (Advanced Science, 2024).

With `CN1CCN(CCCCCN2c3cc(Cl)ccc3Sc3cccnc32)CC1` [JX57], the fraction unbound was 0.0084.
